In US12226412B2, “Heteroaryl-ketone fused azadecalin glucocorticoid receptor modulators” (Corcept Therapeutics, Inc., priority 2012, dated 2025):

Test system: induction of TAT by dexamethasone in HepG2 cells
Test: HepG2 tyrosine aminotransferase (TAT) assay
Assay type: cell-based
Conditions: Homo sapiens, read-out: average EC50 value (half-maximal effect) of induced TAT production
Description: Example 21. HepG2 Tyrosine Aminotransferase (TAT) Assay
Glucocorticoid mediated activation of TAT occurs by transactivation of glucocorticoid response elements in the TAT promoter by glucocorticoid receptor agonist complex.
TAT activity was measured as outlined in the literature by A. Ali et al., J. Med. Chem., 2004, 47, 2441-2452.
HepG2 cells were cultured using MEME media supplemented with 10% (v/v) foetal bovine serum; 2 mM L-glutamine and 1% (v/v) NEAA at 37° C., 5%/95% (v/v) CO2/air. The HepG2 cells were counted and adjusted to yield a density of 0.125×10^6 cells/ml in RPMI 1640 without phenol red, 10% (v/v) charcoal stripped FBS, 2 mM L-glutamine and seeded at 25,000 cells/well in 200 μl into 96 well, sterile, tissue culture micro titre plates, and incubated at 37° C., 5% CO2 for 24 hours
Growth media was removed and replaced with assay media {RPMI 1640 without phenol red, 2 mM L-glutamine+10 μM forskolin}. […] Compounds were serially half log diluted in 100% (v/v) dimethylsupfoxide from a 10 mM stock.
HepG2 cells were then lysed with 30 μl of cell lysis buffer containing a protease inhibitor cocktail for 15 minutes at 4° C. 155 μl of substrate mixture was then added containing 5.4 mM Tyrosine sodium salt, 10.8 mM alpha ketoglutarate and 0.06 mM pyridoxal 5′ phosphate in 0.1M potassium phosphate buffer (pH 7.4). […] The TAT activity product was measured by absorbance at […]. […]

Compound C[C@@H]1C[C@H]2[C@@H]3CCC4=CC(=O)C=C[C@]4(C)[C@@]3(F)[C@@H](O)C[C@]2(C)[C@@]1(O)C(=O)CO [Dexamethasone, dexamethasone, reference compound] has an EC50 of 20 nM.
